Assay results as given in US20250101023A1, “HETEROARYL DERIVATIVE AND USES THEREOF” (IUCF-HYU (INDUSTRY-UNIVERSITY COOPERATION FOUNDATION …, priority 2022, published 2025).

Columns and labels:
HCC1954 cells = test: Breast cancer growth inhibitory activity (Cell-titer Glo, 72 h); type: cell-based; conditions: Homo sapiens
SK-Br3 cells = test: as above; type: cell-based; conditions: Homo sapiens, SK-BR-3

Row | Compound | GI50 (HCC1954 cells) | GI50 (SK-Br3 cells)
1 | CCn1cnc2c(NCc3ccc(-c4nccs4)nc3)nc(-c3cccnc3)nc21 [Example 55, 9-ethyl-2-(pyridin-3-yl)-N-((6-(thiazol-2-yl)pyridin-3-yl)methyl)-9H-purin-6-amine] | 0.529 µM | –
2 | CCn1cnc2c(NCc3ccc(-c4cn[nH]c4)nc3)nc(-c3cccnc3)nc21 [Example 56, N-((6-(1H-pyrazol-4-yl)pyridin-3-yl)methyl)-9-ethyl-2-(pyridin-3-yl)-9H-purin-6-amine] | 3.2 µM | –
3 | CCn1cnc2c(NCc3ccc(-c4ccc5cn[nH]c5c4)nc3)nc(-c3cccnc3)nc21 [Example 57, N-((6-(1H-indazol-6-yl)pyridin-3-yl)methyl)-9-ethyl-2-(pyridin-3-yl)-9H-purin-6-amine] | 5.04 µM | –
4 | CCn1cnc2c(NCc3ccc(-c4ccoc4)nc3)nc(-c3cccnc3)nc21 [Example 58, 9-ethyl-N-((6-(furan-3-yl)pyridin-3-yl)methyl)-2-(pyridin-3-yl)-9H-purin-6-amine] | 0.029 µM | 0.031 µM
5 | CCn1cnc2c(NCc3ccc(-n4cccn4)nc3)nc(-c3cccnc3)nc21 [Example 59, N-((6-(1H-pyrazol-1-yl)pyridin-3-yl)methyl)-9-ethyl-2-(pyridin-3-yl)-9H-purin-6-amine] | 0.039 µM | 0.032 µM
6 | CCn1cnc2c(NCc3ccc(-n4nc(C)cc4C)nc3)nc(-c3cccnc3)nc21 [Example 60, N-((6-(3,5-dimethyl-1H-pyrazol-1-yl)pyridin-3-yl)methyl)-9-ethyl-2-(pyridin-3-yl)-9H-purin-6-amine] | 0.097 µM | 0.102 µM
7 | CCn1cnc2c(NCc3ccc(-n4nc(C)cc4C)nc3)nc(-c3ccc(N)nc3)nc21 [Example 61, 2-(6-aminopyridin-3-yl)-N-((6-(3,5-dimethyl-1H-pyrazol-1-yl)pyridin-3-yl)methyl)-9-ethyl-9H-purin-6-amine] | 0.15 µM | –
8 | CCn1cnc2c(NCc3ccc(-n4nc(C)cc4C)nc3)nc(N3CCCC[C@H]3CCO)nc21 [Example 65, (S)-2-(1-(6-(((6-(3,5-dimethyl-TH-pyrazol-1-yl)pyridin-3-yl)methyl)amino)-9-ethyl-9H-purin-2-yl)piperidin-2-yl)ethan-1-ol] | 0.038 µM | 0.035 µM
9 | CCn1cnc2c(NCc3ccc(-n4nc(C)cc4C)nc3)nc(N3CCOC[C@H]3CCO)nc21 [Example 66, (R)-2-(4-(6-(((6-(3,5-dimethyl-1H-pyrazol-1-yl)pyridin-3-yl)methyl)amino)-9-ethyl-9H-purin-2-yl)morpholin-3-yl)ethan-1-ol] | 0.02 µM | 0.019 µM
